PubChem BioAssay AID720504 (National Center for Advancing Translational Sciences (NCATS), 2013)
Only a part is listed here, and it is no random draw. Results filed as inconclusive are left out. Calls of active or inactive are those of the source. The call rests on the fitted dose curve; in most records, active means well fitted inhibition curve with a large enough effect; inconclusive means small, poorly fitted or top-dose-only effect; inactive means flat fitted curve, though single readings scatter.

Amino acid sequences for entries named in this document (tags omitted).
UniProt P53350, whole entry: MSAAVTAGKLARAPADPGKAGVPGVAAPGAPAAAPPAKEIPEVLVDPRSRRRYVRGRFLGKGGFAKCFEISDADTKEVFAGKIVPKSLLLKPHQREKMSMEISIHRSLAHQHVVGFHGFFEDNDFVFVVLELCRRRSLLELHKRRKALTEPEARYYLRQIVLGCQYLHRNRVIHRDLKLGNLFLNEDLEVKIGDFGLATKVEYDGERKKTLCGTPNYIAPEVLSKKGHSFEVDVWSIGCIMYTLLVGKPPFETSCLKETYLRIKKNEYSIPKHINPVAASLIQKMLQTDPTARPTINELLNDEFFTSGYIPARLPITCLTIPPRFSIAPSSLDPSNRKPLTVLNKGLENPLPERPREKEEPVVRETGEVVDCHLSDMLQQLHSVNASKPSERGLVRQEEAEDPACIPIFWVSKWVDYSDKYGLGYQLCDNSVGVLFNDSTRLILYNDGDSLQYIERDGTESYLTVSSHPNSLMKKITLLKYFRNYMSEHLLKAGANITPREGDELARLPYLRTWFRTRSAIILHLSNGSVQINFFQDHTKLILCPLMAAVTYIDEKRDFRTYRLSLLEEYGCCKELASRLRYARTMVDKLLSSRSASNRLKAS

What follows are molecules tested against Serine/threonine-protein kinase PLK1 (Homo sapiens) (UniProt P53350) (assay: qHTS for Inhibitors of PLK1-PDB (polo-like kinase 1 - polo-box domain): Primary Screen). Settings: Plk1 PBD binding of FITC phosphopeptide, fluorescence polarization.
Further: series mostly up to about 57 µM; nearly all actives have a fitted effect of over 65% in size.
On the % scale 0 is the no-effect control and ±100 the full control effect.

Row | SMILES | max response, negative = inhibition
1 | Cc1ccccc1NC1(C#N)CCN(Cc2ccccc2)CC1 | inactive: -4.22%
2 | CC(C)(C)n1nnnc1C(c1ccnc2ccccc12)N1CCC(n2c(=O)[nH]c3ccccc32)CC1 (stereo not drawn) | inactive: -7%
3 | CCN1CCC(Nc2cccc(F)c2)CC1 | inactive: -3.66%
4 | COc1ccc(C(c2nnnn2C2CCCCC2)N2CCC(n3c(=O)[nH]c4ccccc43)CC2)cc1 (stereo not drawn) | inactive: -1.59%
5 | O=C(NCC1(N2CCCCC2)CCCCC1)c1ccco1 | inactive: -1.45%
6 | Cn1c(=O)[nH]cc(N(CCCl)CCCl)c1=O | inactive: -0.586%
7 | CN(C)c1ccc(C(=O)NCC2(N3CCCCC3)CCCCC2)cc1 | inactive: -7.96%
8 | CC(=O)N(c1ccccc1)C1CCNCC1 | inactive: -11.6%
9 | COc1cccc(C(c2nnnn2C2CCCCC2)N2CCC(n3c(=O)[nH]c4ccccc43)CC2)c1OC (stereo not drawn) | inactive: 2.74%
10 | CCC(c1nnnn1C1CCCCC1)N1CCC(n2c(=O)[nH]c3ccccc32)CC1 (stereo not drawn) | inactive: -2.83%
11 | O=c1[nH]c2ccccc2n1C1CCN(C(c2ccnc3ccccc23)c2nnnn2C2CCCCC2)CC1 (stereo not drawn) | inactive: 1.47%
12 | COc1cc(OC)cc(C(=O)NCC2(N3CCCCC3)CCCCC2)c1 | inactive: -4.75%
13 | Cc1ccc(C(=O)NCC2(N3CCCCC3)CCCCC2)o1 | inactive: -1.41%
14 | Cc1ccc(Nc2c([N+](=O)[O-])cc([N+](=O)[O-])cc2[N+](=O)[O-])cc1 | inactive: -9.38%
15 | Fc1ccccc1NC1CCN(Cc2ccccc2)CC1 | inactive: 2.31%
16 | Cc1ccc(NC2(C#N)CCN(Cc3ccccc3)CC2)cc1 | inactive: -2.16%
17 | COc1cccc(C(=O)N(c2cc(C)cc(C)c2)C2CCN(C(=O)OC(C)(C)C)CC2)c1 | inactive: -3.7%
18 | COc1cc(OC)cc(C(=O)NCC2(N3CCOCC3)CCCCC2)c1 | inactive: -3.15%
19 | COc1cccc(C(c2nnnn2C2CCCC2)N2CCC(n3c(=O)[nH]c4ccccc43)CC2)c1OC (stereo not drawn) | inactive: -0.732%
20 | CCC(CO)(C(=O)OC1CN2CCC1CC2)c1ccccc1 (stereo not drawn) | inactive: -4.65%

Row | SMILES | max response, negative = inhibition
21 | CN1CCC(Nc2ccc(Cl)cc2)CC1 | inactive: -5.85%
22 | CCOc1ncccc1C(=O)NCC1(N2CCOCC2)CCCCC1 | inactive: -3.28%
23 | CN1CCC(Nc2ccc(F)c(Cl)c2)CC1 | inactive: -15.6%
24 | CC(C)(C)OC(=O)N1CCC(Nc2ccccc2)CC1 | inactive: -12.9%
25 | NN(c1ccccc1)C1CCN(CCc2ccccc2)CC1 | inactive: -10.6%
26 | O=C(O)C1(Nc2ccccc2)CCN(Cc2ccccc2)CC1 | inactive: -7.81%
27 | CCCOc1ccc(C(=O)NCC2(N(C)C)CCCCC2)cc1 | inactive: -3.67%
28 | O=c1[nH]c2ccccc2n1C1CCN(C(c2cc3ccccc3o2)c2nnnn2C2CCCC2)CC1 (stereo not drawn) | inactive: 3.76%
29 | COc1cccc(C(c2nnnn2C(C)(C)C)N2CCC(n3c(=O)[nH]c4ccccc43)CC2)c1OC (stereo not drawn) | inactive: -4.97%
30 | CCOC(=O)N1CCC(Nc2ccc(C)cc2)CC1 | inactive: -9.08%
31 | N/C(=N\O)c1c(N)no[n+]1[O-] | inactive: 2.65%
32 | O=C(OC1CN2CCC1CC2)C1c2ccccc2C=Cc2ccccc21 (stereo not drawn) | inactive: -4.74%
33 | CCc1cc(C(=O)NCC2(N3CCCCC3)CCCCC2)sc1C | inactive: -2.1%
34 | O=c1[nH]c2ccccc2n1C1CCN(C(c2cccs2)c2nnnn2C2CCCC2)CC1 (stereo not drawn) | inactive: 4.24%
35 | O=C(O)c1cccc(Nc2c([N+](=O)[O-])cc([N+](=O)[O-])cc2[N+](=O)[O-])c1 | inactive: -3.21%
36 | CCCCn1nnnc1C(c1cccc(OC)c1OC)N1CCC(n2c(=O)[nH]c3ccccc32)CC1 (stereo not drawn) | inactive: -4.84%
37 | CCCCn1nnnc1C(c1ccccc1)N1CCC(n2c(=O)[nH]c3ccccc32)CC1 (stereo not drawn) | inactive: -7.31%
38 | COc1cc(C(=O)NCC2(N3CCOCC3)CCCCC2)cc(OC)c1C | inactive: -4.74%
39 | O=C(NCC1(N2CCOCC2)CCCCC1)c1cc(Br)ccc1Cl | inactive: -3.75%
40 | O=c1[nH]c2ccccc2n1C1CCN(C(c2cccs2)c2nnnn2C2CCCCC2)CC1 (stereo not drawn) | inactive: -12.7%

Row | SMILES | max response, negative = inhibition
41 | COc1ccc(C(=O)NCC2(N3CCOCC3)CCCCC2)cc1OC | inactive: -4.24%
42 | O=c1[nH]c2ccccc2n1C1CCN(C(c2ccnc3ccccc23)c2nnnn2C2CCCC2)CC1 (stereo not drawn) | inactive: -7.42%
43 | CN(C)C1(CNC(=O)c2cccc(C#N)c2)CCCCC1 | inactive: 7.93%
44 | c1ccc(CN2CCC(Nc3ccccc3)CC2)cc1 | inactive: -17.8%
45 | Cc1cc(N(CCCl)CCCl)ccc1C=O | inactive: 3.92%
46 | O=c1[nH]c2ccccc2n1C1CCN(C(c2ccccc2)c2nnnn2C2CCCC2)CC1 (stereo not drawn) | inactive: -6.73%
47 | CCCN1CCC(Nc2cc(OC)cc(OC)c2)CC1 | inactive: 2.12%
48 | CC(C)(C)n1nnnc1C(c1cccc2ccccc12)N1CCC(n2c(=O)[nH]c3ccccc32)CC1 (stereo not drawn) | inactive: -5.75%
49 | N#Cc1ccc(C(=O)NCC2(N3CCCCC3)CCCCC2)cc1 | inactive: -17.6%
50 | CC(C)(C)OC(=O)N1CCC(N(C(=O)c2ccccc2)c2ccc(Cl)cc2)CC1 | inactive: -2.74%
51 | CCOC(=O)C(CC)C1=NC(C)(C)Cc2ccccc21.O=[N+]([O-])c1cc([N+](=O)[O-])c(O)c([N+](=O)[O-])c1 (stereo not drawn) | inactive: 2.96%
52 | O=[N+]([O-])c1cc([N+](=O)[O-])c(NCC2CCS(=O)(=O)C2)c([N+](=O)[O-])c1 (stereo not drawn) | inactive: -2.19%
53 | O=C(NCC1(N2CCCCC2)CCCCC1)c1cccc(C(F)(F)F)c1 | inactive: -15%
54 | O=C(NCC1(N2CCOCC2)CCCCC1)c1cc(=O)[nH]c2ccccc12 | inactive: -14%
55 | COc1cc(C(=O)NCC2(N3CCCCC3)CCCCC2)ccc1OC(F)F | inactive: 0.379%
56 | CCCCn1nnnc1C(c1cccc2ccccc12)N1CCC(n2c(=O)[nH]c3ccccc32)CC1 (stereo not drawn) | inactive: 0.366%
57 | CC(C)c1ccc(C(=O)NCC2(N3CCOCC3)CCCCC2)cc1 | inactive: -8.22%
58 | COc1ccc(NC2CCN(C(=O)OC(C)(C)C)CC2)cc1 | inactive: -0.101%
